Measurements: ChEMBL document CHEMBL1133485, “3alpha-(4-Substituted phenyl)nortropane-2beta-carboxylic acid methyl esters show selective binding at the norepinephrine transporter” (Bioorg Med Chem Lett, 2000)

Chains of the proteins cited; added tags and fusions are not shown.
UniProt Q9WTR4, whole entry: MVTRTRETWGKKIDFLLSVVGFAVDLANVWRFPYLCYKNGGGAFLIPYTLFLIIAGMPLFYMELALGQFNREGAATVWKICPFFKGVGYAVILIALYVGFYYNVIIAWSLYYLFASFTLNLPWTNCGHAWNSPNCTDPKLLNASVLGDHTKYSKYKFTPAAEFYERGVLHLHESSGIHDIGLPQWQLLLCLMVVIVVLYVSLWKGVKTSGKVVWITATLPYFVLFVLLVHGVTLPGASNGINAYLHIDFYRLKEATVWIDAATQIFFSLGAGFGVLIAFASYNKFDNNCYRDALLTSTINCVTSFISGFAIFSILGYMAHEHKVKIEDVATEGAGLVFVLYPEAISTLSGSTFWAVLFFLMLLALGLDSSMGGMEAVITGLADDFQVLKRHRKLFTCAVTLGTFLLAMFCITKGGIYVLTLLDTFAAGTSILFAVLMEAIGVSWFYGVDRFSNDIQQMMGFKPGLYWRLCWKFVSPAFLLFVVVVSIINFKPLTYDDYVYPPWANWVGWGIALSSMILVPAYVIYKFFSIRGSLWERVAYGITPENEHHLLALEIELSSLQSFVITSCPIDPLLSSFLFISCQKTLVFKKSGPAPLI

Target: Norepinephrine transporter (Rattus norvegicus, UniProt Q9WTR4)
Assay: Inhibition of 0.5 nM [3H]nisoxetine binding to Norepinephrine transporter

In the case of `COC(=O)[C@@H]1C2CC[C@@H](C[C@@H]1OC(=O)c1ccccc1)N2C` (single isomer, unassigned) [COCAINE], the Ki is reported as 1.9 µM.
